Laboratory results as given in patent publication US20060079453A1, “Hla binding peptides and their uses” (priority 2002, published 2006).
Like-named read-outs stand apart in the source and are kept apart here.

Sequences of proteins named here, by UniProt entry; tags and fusion partners are left off. Residues count along the entry.
UniProt Q30154, 30-266: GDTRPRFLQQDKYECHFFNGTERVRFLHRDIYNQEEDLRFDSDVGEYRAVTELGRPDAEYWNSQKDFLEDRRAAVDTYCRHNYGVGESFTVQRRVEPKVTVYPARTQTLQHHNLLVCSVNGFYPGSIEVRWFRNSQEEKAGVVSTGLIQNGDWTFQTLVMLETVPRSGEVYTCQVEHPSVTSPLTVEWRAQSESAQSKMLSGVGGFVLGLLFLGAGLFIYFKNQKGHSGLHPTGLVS
UniProt P79483, 30-266: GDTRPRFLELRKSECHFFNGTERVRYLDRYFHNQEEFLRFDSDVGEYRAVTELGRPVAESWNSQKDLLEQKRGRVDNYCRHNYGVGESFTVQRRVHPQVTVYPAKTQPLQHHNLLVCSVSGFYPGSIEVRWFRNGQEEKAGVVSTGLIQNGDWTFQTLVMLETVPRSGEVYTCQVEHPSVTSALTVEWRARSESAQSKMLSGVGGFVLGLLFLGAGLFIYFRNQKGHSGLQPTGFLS

Columns and labels:
Experiment in all cases: biochemical
Type in all cases: binding
HLA-DR DRB5*0101 (DR51) = HLA-DR DRB5*0101 (DR51) (Homo sapiens, UniProt P01903+Q30154); details: DRB5 *0101
HLA-DR DRB1*0301 (DR3) = HLA-DR DRB1*0301 (DR3) (Homo sapiens, UniProt P01903+P01911, A100K/A102G/A103R/A169T/F55Y/I96L/K41T/L162R/M171V/P40S/Q125H/Q178H/Q39Y/R42S/S66N/T106N/T262R/W38E/Y61H)
HLA-DR DRB1*1302 (DR13) = HLA-DR DRB1*1302 (DR13) (Homo sapiens, UniProt P01903+P01911, A100E/A169T/K41T/L162R/M171V/P40S/Q125H/Q178H/Q39Y/Q99D/R42S/S66N/T262R/V115G/W38E/Y61H); details: DRBI *1302
HLA-DR DRB1*1101 (DR11) = HLA-DR DRB1*1101 (DR11) (Homo sapiens, UniProt P01903+P01911, A100R/A169T/A87E/I96F/K41T/L162R/M171V/P40S/Q125H/Q178H/Q39Y/Q99D/R42S/S66Y/T262R/V115G/W38E); details: DRB1 *1101
HLA-DR DRB1*1501 (DR15) = HLA-DR DRB1*1501 (DR15) (Homo sapiens, UniProt P01903+P01911); details: DRBI *1501
HLA-DR DRB1*0401 (DR4) = HLA-DR DRB1*0401 (DR4) (Homo sapiens, UniProt P01903+P01911, A100K/A169T/F76Y/I96L/K127E/L162R/M171V/N62H/P40V/Q125Y/R42H/S133A/S149N/S66Y/V115G/V209L/W38E); details: DRB1 *0401
HLA-DR DRB4*0101 (DR53) = HLA-DR DRB4*0101 (DR53) (Homo sapiens, UniProt P01903+P13762, G164S); details: DRB4 *0101
HLA-DR DRB1*0405 (DR4) = HLA-DR DRB1*0405 (DR4) (Homo sapiens, UniProt P01903+P01911, A100R/A169T/D86S/F76Y/I96L/K127E/L162R/M171V/N62H/P40V/Q125Y/R42H/S133A/S149N/S66Y/V115G/V209L/W38E); details: DRB1 *0405
HLA-DR DRB3*0101 (DR52) = HLA-DR DRB3*0101 (DR52) (Homo sapiens, UniProt P01903+P79483)
HLA-DR DRB1*0802 (DR8) = HLA-DR DRB1*0802 (DR8) (Homo sapiens, UniProt P01903+P01911, A100R/A103L/A169T/F76Y/H45Y/I96F/K41T/L162R/M171V/P40S/Q125H/Q178H/Q39Y/Q99D/R218S/R42G/S66Y/V115G/W38E)
HLA-DR DRB1*0701 (DR7) = HLA-DR DRB1*0701 (DR7) (Homo sapiens, UniProt P01903+P01911, A100R/A102G/A103Q/D57E/D86V/E43K/F76Y/K127E/L162R/M171V/P40G/Q125H/Q99D/R33Q/R42Y/R54Q/S133A/S66F/T210M/V115G/Y107V/Y59L/Y89S); details: DRB1 *0701
HLA-DR DRB1*0901 (DR9) = HLA-DR DRB1*0901 (DR9) (Homo sapiens, UniProt P01903+P01911, A100R/A103E/D57H/D86V/F55Y/F60I/F76Y/I96F/K127E/L162R/M171V/P40D/Q125H/Q99R/R33Q/R42F/S133A/S66N/T210M/V115G/W38K/Y107V/Y59G/Y89S); details: DRB1 *0901
HLA-A*0202 = HLA-A*0202 (Homo sapiens, UniProt P04439, D140Y/D185E/D98H/E176V/E277Q/G131W/G231S/I119L/I121R/I166T/I218V/L180W/L300P/L318F/N151K/N90K/P208A/P217A/Q67R/Q86G/Q94H/R138H/R169H/T345S)
HLA-A*0206 = HLA-A*0206 (Homo sapiens, UniProt P04439, D140Y/D185E/D98H/E176V/E277Q/F33Y/G131W/G231S/I119V/I121R/I166T/I218V/L300P/L318F/N151K/N90K/P208A/P217A/Q86G/Q94H/R138H/R169H/T345S); details: read-out: A*0206 binding affinity (expressed as an IC50)
HLA-A*0201 = HLA-A*0201 (Homo sapiens, UniProt P04439, D140Y/D185E/D98H/E176V/E277Q/G131W/G231S/I119V/I121R/I166T/I218V/L300P/L318F/N151K/N90K/P208A/P217A/Q86G/Q94H/R138H/R169H/T345S)
HLA-A*0203 = HLA-A*0203 (Homo sapiens, UniProt P04439, A173T/D140Y/D185E/D98H/E277Q/G131W/G231S/I119V/I121R/I166T/I218V/L180W/L300P/L318F/N151K/N90K/P208A/P217A/Q86G/Q94H/R138H/R169H/T345S)
[1] = A*0203 binding affinity (expressed as an IC50)

## CC(C)C[C@H](NC(=O)[C@H](CCC(N)=O)NC(=O)[C@H](Cc1c[nH]cn1)NC(=O)[C@H](CC(C)C)NC(=O)[C@H](CCCNC(=N)N)NC(=O)[C@H](Cc1c[nH]cn1)NC(=O)[C@H](C)NC(=O)[C@H](CCCNC(=N)N)NC(=O)[C@@H](N)CC(C)C)C(=O)N[C@@H](C)C(=O)N[C@@H](Cc1ccccc1)C(=O)N[C@@H](CC(=O)O)C(=O)N[C@H](C(=O)N[C@@H](Cc1ccc(O)cc1)C(=O)N[C@@H](CCC(N)=O)C(=O)O)[C@@H](C)O
HLA-DR DRB5*0101 (DR51)
  IC50: 4.47 µM
HLA-DR DRB1*0301 (DR3)
  IC50: 15.6 µM
HLA-DR DRB1*1302 (DR13)
  IC50: 7.59 µM
HLA-DR DRB1*1101 (DR11)
  IC50: 3.21 µM
HLA-DR DRB1*1501 (DR15)
  IC50: 0.09 µM
HLA-DR DRB1*0401 (DR4)
  IC50: 5.08 µM
HLA-DR DRB4*0101 (DR53)
  IC50: 0.002 µM
HLA-DR DRB1*0405 (DR4)
  IC50: 10.1 µM
HLA-DR DRB3*0101 (DR52)
  IC50: 19.8 µM
HLA-DR DRB1*0802 (DR8)
  IC50: 5.62 µM
HLA-DR DRB1*0701 (DR7)
  IC50: 0.123 µM
HLA-DR DRB1*0901 (DR9)
  IC50: 15.1 µM

## LLWQPIPVTIV
HLA-A*0202; read-out: A*0202 binding affinity (expressed as an IC50)
  IC50: 0.0018 µM
HLA-A*0206
  IC50: 0.285 µM
HLA-A*0201; read-out: A*0201 binding affinity (expressed as an IC50)
  IC50: 0.025 µM

## CC(C)C[C@H](NC(=O)CN)C(=O)N[C@@H](Cc1c[nH]cn1)C(=O)NCC(=O)N[C@@H](CCC(N)=O)C(=O)N[C@@H](CC(=O)O)C(=O)N[C@@H](CC(C)C)C(=O)N[C@@H](Cc1ccccc1)C(=O)NCC(=O)N[C@H](C(=O)O)C(C)C
HLA-A*0202; A*0202 binding affinity (expressed as an IC50)
  IC50: 0.0023 µM
HLA-A*0203; [1]
  IC50: 0.0031 µM

## CC(C)C[C@H](NC(=O)[C@H](C)NC(=O)[C@H](CC(C)C)NC(=O)[C@@H](N)CC(C)C)C(=O)N[C@@H](Cc1ccccc1)C(=O)N1CCC[C@H]1C(=O)N1CCC[C@H]1C(=O)N[C@@H](CCC(=O)O)C(=O)NCC(=O)N[C@H](C(=O)O)C(C)C
HLA-A*0201; A*0201 binding affinity (expressed as an IC50)
  IC50: 0.005 µM

## CC[C@H](C)[C@H](NC(=O)[C@@H](NC(=O)[C@H](CCCNC(=N)N)NC(=O)[C@H](CC(C)C)NC(=O)[C@@H]1CCCN1C(=O)[C@H](C)NC(=O)[C@H](C)NC(=O)[C@H](CO)NC(=O)[C@H](C)NC(=O)[C@H](C)NC(=O)[C@H](CC(=O)O)NC(=O)[C@@H]1CCCN1C(=O)[C@@H]1CCCN1)[C@@H](C)O)C(=O)N[C@H](C(=O)N[C@@H](C)C(=O)O)[C@@H](C)O
HLA-DR DRB5*0101 (DR51)
  IC50: 1.12 µM
HLA-DR DRB1*0301 (DR3)
  IC50: 14.9 µM
HLA-DR DRB1*1302 (DR13)
  IC50: 10.2 µM
HLA-DR DRB1*1101 (DR11)
  IC50: 2.58 µM
HLA-DR DRB3*0101 (DR52)
  IC50: 10.6 µM
HLA-DR DRB1*0701 (DR7)
  IC50: 24.9 µM
HLA-DR DRB1*0901 (DR9)
  IC50: 8.67 µM

## CC(C)C[C@H](NC(=O)[C@@H]1CCCN1)C(=O)N[C@H](C(=O)N[C@@H](CS)C(=O)N[C@@H](CC(N)=O)C(=O)NCC(=O)N[C@H](C(=O)N[C@@H](CC(C)C)C(=O)N[C@@H](CCC(N)=O)C(=O)NCC(=O)N[C@H](C(=O)O)C(C)C)C(C)C)C(C)C
HLA-A*0203; [1]
  IC50: 0.019 µM

## ALGTTGYV
HLA-A*0203; read-out: A*0203 binding affinity (expressed as an IC50)
  IC50: 0.012 µM
